{"sequences": {"note": "Chains of the proteins cited; added tags and fusions are not shown.", "UniProt Q9Y6L6, whole entry N130D": "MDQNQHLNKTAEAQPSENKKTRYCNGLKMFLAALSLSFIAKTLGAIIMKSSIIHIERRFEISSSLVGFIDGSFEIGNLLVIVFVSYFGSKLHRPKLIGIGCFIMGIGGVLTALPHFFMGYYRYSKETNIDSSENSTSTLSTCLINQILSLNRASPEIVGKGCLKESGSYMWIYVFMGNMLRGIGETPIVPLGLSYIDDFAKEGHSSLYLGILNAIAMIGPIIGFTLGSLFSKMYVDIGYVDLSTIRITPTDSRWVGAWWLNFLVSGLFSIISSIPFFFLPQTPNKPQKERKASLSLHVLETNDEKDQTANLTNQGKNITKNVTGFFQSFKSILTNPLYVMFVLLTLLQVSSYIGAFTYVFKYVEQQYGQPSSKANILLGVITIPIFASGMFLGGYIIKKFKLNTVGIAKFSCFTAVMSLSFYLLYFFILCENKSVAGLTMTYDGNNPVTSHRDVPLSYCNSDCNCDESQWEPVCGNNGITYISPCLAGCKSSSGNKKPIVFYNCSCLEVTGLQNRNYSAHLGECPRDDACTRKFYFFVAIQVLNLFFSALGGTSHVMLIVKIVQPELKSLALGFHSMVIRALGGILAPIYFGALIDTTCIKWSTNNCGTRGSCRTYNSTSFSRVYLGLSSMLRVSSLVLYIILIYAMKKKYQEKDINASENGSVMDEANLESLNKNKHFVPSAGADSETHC"}, "source": "patent US7235375B2", "about": "“Organic anion transport proteins” (Bristol-Myers Squibb Company, priority 1999, dated 2007)", "biological_target": "OATP2 (Homo sapiens, UniProt Q9Y6L6, N130D)", "settings": "293EBNA (HEK293 derivative) cells transfected with pCEP-OATP2 or empty vector (MOCK); uptake for 5 minutes; absence and presence of excess unlabeled substrate; FIG. 2", "description": "An assay for the measurement of OATP activity is performed as follows: HEK293 cells are plated in Dulbeccos Modified Eagles Medium (DMEM) plus 10% fetal bovine serum plus penicillin and streptomycin, in poly-d-lysine coated dishes and co-transfected with OATP transporter expression plasmids using Lipofectamine Plus (Life Technologies, Inc.). The cells and media are assayed for substrate transport 24 hours later. Alternatively, cell lines engineered to stably express OATPs could be plated and assayed directly without transfection. To measure transport, media is removed and monolayers are assayed in triplicate by washing once in serum-free DMEM and adding the same medium containing [^3H]-substrate alone or in the presence of various concentrations of unlabeled test compounds. […] The transport activity is expressed as moles of substrate transported into cells/mg of cell protein/minute. […]\n293EBNA cells (Invitrogen, Inc.), an HEK293 cell derivative, were transiently transfected with the OATP2 expression vector pCEP-OATP2, or the pCEP4 vector alone (MOCK) and the transport of [^3H]-labeled substrates was determined 24 hours later. […] The uptake of radiolabeled substrate for 5 minutes into cells transfected with pCEP-OATP2 or empty vector (MOCK) was determined in the absence (solid bars) and presence (open bars) of excess unlabeled substrate.", "note": "“Also recorded” adds a separate entry of the source."}
{"substance": "dehydroepiandrosterone sulfate [DHEAS]", "values": [{"measurement": "transport (specific uptake of radiolabeled substrate) by OATP2", "result": "specific uptake; also recorded: transports"}]}
